Measurements taken from ChEMBL document CHEMBL1136550, “Discovery of orally bioavailable NK1 receptor antagonists” (Bioorg Med Chem Lett, 2003).

Amino acid sequences for entries named in this document (tags omitted).
UniProt P25103, whole entry: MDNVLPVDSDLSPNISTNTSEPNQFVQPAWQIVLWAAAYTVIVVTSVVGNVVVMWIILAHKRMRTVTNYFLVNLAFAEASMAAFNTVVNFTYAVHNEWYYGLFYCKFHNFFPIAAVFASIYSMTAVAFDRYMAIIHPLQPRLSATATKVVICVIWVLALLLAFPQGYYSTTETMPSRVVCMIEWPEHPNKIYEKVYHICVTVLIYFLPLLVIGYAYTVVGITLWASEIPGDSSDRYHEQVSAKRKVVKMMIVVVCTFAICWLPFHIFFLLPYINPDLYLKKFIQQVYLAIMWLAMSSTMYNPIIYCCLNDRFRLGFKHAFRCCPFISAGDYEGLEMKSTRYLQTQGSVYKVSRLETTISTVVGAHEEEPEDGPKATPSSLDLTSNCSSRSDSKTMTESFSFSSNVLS

Target: Substance-P receptor (Homo sapiens, UniProt P25103)
Test: Displacement of [3H]-substance P from human NK1 receptor expressed in CHO cells
Format: cell-based

In the case of `C[C@H](OC[C@H](c1ccccc1)N1CCN(CCOCC(=O)O)CC1)c1cc(C(F)(F)F)cc(C(F)(F)F)c1`, the Ki is reported as 1.26 nM.
